This experiment has as its target T1, COX-1 (U-937 cells) (Homo sapiens, UniProt P23219).
T1 construct: human U-937 cells (which specifically express COX-1); endogenous in cells; host or cells: human U-937 cells
Kind of experiment: Whole cell assay for COX-1 in human U-937 cells (inhibition of PGE2 production). The format is cell-based. The settings on record: n given per cell.

By UniProt entry, the sequences of proteins in these tests, tags left out. Residues count along the entry.
UniProt P23219, 24-599: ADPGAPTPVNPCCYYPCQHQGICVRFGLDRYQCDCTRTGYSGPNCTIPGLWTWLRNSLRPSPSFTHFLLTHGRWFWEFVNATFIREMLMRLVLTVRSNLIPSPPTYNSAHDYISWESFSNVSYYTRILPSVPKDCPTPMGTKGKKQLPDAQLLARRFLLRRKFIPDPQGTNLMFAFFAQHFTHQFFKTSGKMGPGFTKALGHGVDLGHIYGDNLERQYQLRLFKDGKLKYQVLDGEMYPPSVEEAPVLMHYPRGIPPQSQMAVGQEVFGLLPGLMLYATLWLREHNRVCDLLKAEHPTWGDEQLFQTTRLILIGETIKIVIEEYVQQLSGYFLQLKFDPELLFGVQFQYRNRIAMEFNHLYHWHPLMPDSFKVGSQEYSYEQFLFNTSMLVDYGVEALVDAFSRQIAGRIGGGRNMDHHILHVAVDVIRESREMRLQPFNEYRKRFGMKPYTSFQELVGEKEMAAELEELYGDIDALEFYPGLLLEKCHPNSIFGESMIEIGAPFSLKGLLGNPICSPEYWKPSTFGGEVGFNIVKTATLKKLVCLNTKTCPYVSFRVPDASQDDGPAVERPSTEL

The text below walks through data of patent publication US5817700A, “Bisaryl cyclobutenes derivatives as cyclooxygenase inhibitors” (Merck Frosst Canada, Inc., priority 1997, dated 1998).

With `CC1(C)C(=O)C(c2ccccc2)=C1c1ccc(S(C)(=O)=O)cc1` [Example 16, 4,4-Dimethyl-3-(4-methylsulfonylphenyl)-2-phenyl-2-cyclobuten-1-one], the IC50 was determined as 520 nM. In other words, the sub-micromolar range.

As a reminder, the IC50 is the concentration needed to halve the response being measured.
